Experimental data taken from patent publication US20140212487A1, “SOLID DISPERSION FORMULATION OF AN ANTIVIRAL COMPOUND” (priority 2013, published 2014).

Assay: Pharmacokinetics after oral administration of tablets in beagle dogs
Format: in vivo
Details: pentagastrin pretreatment, read-out: Cmax, mean (RSD)
Experimental: A series of in vivo experiments were conducted to evaluate the potential benefit of the solid dispersion approach relative to conventional formulations, as well as to optimize the solid dispersion by identifying the most beneficial polymer type and relative polymer concentration within the dispersion.
Pentagastrin is a synthetic polypeptide that stimulates the secretion of gastric acid, pepsin, and intrinsic factor. […]

For `COC(=O)N[C@H](C(=O)N1CC2(CC2)C[C@H]1c1ncc(-c2ccc3c(c2)C(F)(F)c2cc(-c4ccc5nc([C@@H]6[C@H]7CC[C@H](C7)N6C(=O)[C@@H](NC(=O)OC)C(C)C)[nH]c5c4)ccc2-3)[nH]1)C(C)C.O=C(O)C(O)C(O)C(=O)O` [Crystalline D-tartrate], which Cmax is on record?
The Cmax was 665 nM.
